Biological target: T1, hSK4 (Homo sapiens, UniProt O15554)
T1 construct: expressed in transfected cells; host or cells: HEK293 Kir 2.1 + mutated Nav cells, transient expression via baculovirus vector
Test: Cell death assay in SK4 test cells (Kir 2.1+IFM/QQQ+SK4 cells)
Format: cell-based
Conditions: added together with DCEBIO, 100 nM Ca ion
From the text: hSK2 and hSK4, which are each one type of human-derived Ca ion-activated ion channel, were respectively subcloned in a baculovirus vector, which is a viral vector, and were inserted into the Kir 2.1 #mutated Nav cells prepared in Second Embodiment to prepare hSK2 transiently expressing Kir 2.1+IFM/QQQ+SK2 cells (referred to herebelow as SK2 test cells) and hSK4 transiently expressing Kir 2.1+IFM/QQQ+SK4 cells (referred to herebelow as SK4 test cells). Sf-900 III SFM (Thermo Fisher Scientific) was used for the culture medium for baculovirus vector production, and Dulbecco's Modified Eagle Medium (D-MEM) culture medium supplemented with 10% fetal bovine serum (FBS) was used as the culture medium for the test cells.

In the case of `Clc1ccccc1C(c1ccccc1)(c1ccccc1)n1cccn1` [TRAM34], the “effect of inhibitor on DCEBIO-mediated inhibition of cell death” value is reported as “the DCEBIO-mediated inhibition of cell death was extinguished”.

Source: patent US11828750B2, “Material for screening for compound acting on ION channel and use thereof” (PUBLIC UNIVERSITY CORPORATION NAGOYA CITY UNIVERSITY, priority 2016, dated 2023)
